Target: Protease (Human immunodeficiency virus 1, UniProt Q9YQ12)
Test: Inhibition of HIV1 protease expressed in Escherichia coli incubated for 20 to 30 mins at room temperature using (Arg-Glu(EDANS)-Ser-Gln-Asn-Tyr-Pro-Ile-Val-Gln-Lys(DABCYL)-Arg) substrate by FRET method

Q: For `CC(C)(C)NC(=O)[C@@H]1CN(Cc2cccnc2)CCN1C[C@@H](O)C[C@@H](Cc1ccccc1)C(=O)N[C@H]1c2ccccc2C[C@H]1O`, which IC50 is on record?
A: 880 pM
